These results are taken from the supplement of paper PMC11403291.

Protein sequences, listed by entry. Tags and fused reporters are not part of them. Lines headed by an entry give the natural chain unless they say otherwise; changes in a name come on top.
UniProt O43683: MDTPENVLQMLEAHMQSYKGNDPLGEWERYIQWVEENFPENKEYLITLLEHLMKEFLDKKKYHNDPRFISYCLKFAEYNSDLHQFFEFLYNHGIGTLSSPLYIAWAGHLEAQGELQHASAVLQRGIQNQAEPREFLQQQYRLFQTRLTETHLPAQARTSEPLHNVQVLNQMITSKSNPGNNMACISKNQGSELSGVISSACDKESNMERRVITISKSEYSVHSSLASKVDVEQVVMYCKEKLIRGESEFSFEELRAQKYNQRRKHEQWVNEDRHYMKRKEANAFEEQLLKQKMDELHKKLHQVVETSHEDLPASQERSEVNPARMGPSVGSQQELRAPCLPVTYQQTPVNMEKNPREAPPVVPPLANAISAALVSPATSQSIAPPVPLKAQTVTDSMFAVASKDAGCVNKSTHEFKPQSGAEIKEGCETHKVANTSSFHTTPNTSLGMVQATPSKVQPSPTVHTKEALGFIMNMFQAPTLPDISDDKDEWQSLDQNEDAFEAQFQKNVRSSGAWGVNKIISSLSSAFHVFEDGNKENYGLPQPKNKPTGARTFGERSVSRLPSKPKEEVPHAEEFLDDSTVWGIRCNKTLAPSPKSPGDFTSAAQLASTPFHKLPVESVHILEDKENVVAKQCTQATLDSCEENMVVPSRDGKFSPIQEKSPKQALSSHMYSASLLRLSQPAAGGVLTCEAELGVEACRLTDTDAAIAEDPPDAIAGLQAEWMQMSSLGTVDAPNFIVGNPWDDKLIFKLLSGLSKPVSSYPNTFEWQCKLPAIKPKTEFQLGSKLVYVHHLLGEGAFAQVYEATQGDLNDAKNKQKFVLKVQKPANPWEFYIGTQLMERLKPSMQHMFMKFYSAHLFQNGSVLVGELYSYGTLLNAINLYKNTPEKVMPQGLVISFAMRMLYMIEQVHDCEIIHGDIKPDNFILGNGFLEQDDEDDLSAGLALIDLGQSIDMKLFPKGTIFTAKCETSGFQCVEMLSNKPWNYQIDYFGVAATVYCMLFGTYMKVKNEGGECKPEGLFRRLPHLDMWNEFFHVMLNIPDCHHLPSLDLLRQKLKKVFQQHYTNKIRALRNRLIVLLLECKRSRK

Common to all, as to assay: apparent dissociation constant pKd app (kinobead competition) (-log10(M)); higher = stronger binding
One experiment deals with T1, TTK (UniProt P33981).
T1 sequence (whole entry): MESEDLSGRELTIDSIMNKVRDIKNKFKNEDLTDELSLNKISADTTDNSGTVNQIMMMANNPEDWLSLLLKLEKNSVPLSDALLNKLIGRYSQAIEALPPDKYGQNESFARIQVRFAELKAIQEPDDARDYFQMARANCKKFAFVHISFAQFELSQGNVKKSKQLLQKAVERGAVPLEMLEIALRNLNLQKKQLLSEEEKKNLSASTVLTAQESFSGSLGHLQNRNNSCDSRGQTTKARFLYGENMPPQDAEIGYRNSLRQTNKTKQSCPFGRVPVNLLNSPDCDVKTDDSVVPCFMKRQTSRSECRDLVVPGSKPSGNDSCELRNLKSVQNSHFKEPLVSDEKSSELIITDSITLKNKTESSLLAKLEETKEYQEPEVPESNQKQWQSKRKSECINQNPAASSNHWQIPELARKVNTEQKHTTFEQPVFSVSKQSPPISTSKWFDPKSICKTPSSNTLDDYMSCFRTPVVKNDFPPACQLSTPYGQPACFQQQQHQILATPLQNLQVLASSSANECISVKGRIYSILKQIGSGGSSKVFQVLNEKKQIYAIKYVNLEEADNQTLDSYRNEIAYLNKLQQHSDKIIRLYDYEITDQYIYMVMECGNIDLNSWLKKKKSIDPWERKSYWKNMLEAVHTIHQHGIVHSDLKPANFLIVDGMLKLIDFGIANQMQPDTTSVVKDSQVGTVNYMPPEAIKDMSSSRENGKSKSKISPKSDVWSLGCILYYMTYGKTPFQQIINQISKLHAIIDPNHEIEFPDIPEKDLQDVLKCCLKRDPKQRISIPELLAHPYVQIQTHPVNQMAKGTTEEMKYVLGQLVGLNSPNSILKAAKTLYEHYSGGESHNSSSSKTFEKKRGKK

The next experiment deals with T2, DDR2 (UniProt Q16832).
T2 sequence (whole entry): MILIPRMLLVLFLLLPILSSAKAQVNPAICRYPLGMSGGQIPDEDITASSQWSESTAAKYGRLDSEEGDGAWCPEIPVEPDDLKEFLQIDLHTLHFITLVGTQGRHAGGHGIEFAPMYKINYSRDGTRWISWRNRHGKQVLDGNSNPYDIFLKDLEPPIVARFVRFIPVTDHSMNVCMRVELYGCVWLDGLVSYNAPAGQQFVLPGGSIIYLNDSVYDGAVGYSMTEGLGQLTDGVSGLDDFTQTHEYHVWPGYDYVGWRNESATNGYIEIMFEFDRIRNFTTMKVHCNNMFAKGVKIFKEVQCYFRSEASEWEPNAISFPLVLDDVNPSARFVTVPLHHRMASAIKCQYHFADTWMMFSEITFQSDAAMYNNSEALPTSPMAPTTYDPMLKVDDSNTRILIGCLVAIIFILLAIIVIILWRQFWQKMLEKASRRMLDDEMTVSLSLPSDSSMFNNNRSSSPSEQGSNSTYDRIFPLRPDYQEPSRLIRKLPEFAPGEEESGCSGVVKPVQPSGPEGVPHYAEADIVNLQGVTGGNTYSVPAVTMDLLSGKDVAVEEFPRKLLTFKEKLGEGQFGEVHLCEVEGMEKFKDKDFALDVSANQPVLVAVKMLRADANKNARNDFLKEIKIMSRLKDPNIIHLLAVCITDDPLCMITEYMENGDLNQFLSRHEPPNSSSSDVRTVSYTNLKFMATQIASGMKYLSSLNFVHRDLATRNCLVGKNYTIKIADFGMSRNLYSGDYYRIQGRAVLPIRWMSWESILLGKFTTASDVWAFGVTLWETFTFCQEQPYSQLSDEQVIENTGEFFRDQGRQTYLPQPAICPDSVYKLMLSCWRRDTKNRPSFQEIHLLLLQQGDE

The target in a further experiment is BUB1 (UniProt O43683).
The next experiment deals with T3, MAP4K2 (UniProt Q12851).
T3 sequence (whole entry): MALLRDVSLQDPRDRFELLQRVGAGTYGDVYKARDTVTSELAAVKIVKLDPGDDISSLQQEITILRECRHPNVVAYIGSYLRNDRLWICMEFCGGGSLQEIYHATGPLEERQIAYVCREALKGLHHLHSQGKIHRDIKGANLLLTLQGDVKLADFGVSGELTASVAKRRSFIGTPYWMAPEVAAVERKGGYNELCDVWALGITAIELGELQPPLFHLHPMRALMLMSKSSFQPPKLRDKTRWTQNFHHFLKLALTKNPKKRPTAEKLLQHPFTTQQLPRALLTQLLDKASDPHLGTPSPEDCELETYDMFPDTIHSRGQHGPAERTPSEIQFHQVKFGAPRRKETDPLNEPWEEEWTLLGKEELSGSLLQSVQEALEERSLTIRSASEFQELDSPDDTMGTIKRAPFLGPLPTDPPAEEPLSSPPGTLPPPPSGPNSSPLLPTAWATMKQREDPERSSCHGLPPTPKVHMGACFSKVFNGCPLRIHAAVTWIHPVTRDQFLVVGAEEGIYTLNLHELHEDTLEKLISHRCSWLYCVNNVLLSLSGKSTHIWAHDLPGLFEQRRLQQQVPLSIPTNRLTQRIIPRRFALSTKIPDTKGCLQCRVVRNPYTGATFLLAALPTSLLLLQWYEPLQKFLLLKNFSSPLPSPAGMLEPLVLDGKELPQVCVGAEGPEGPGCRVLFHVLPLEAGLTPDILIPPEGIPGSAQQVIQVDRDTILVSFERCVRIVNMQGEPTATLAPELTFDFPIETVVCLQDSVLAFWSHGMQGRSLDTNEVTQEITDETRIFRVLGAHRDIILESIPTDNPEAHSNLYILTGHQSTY

SMILES strings stand for the structures. Some results are limits rather than exact numbers.

In the case of `NC(=O)c1cccc2cn(-c3ccc([C@@H]4CCCNC4)cc3)nc12` [Niraparib], the “apparent dissociation constant pKd app (-log10)” value is below 4.5 on TTK, below 4.6 at DDR2, below 4.7 on BUB1 and below 4.6 on MAP4K2.
In the case of `Cn1ncnc1[C@H]1c2n[nH]c(=O)c3cc(F)cc(c23)N[C@@H]1c1ccc(F)cc1` [Talazoparib], the “apparent dissociation constant pKd app (-log10)” value at TTK was below 4.5; at DDR2, below 4.6; at BUB1 it was below 4.7; on MAP4K2, below 4.6.
On to `O=C(c1cc(Cc2n[nH]c(=O)c3ccccc23)ccc1F)N1CCN(C(=O)C2CC2)CC1` [Olaparib], for which the “apparent dissociation constant pKd app (-log10)” value on TTK is below 4.5; on DDR2, below 4.6; on BUB1, below 4.7; on MAP4K2, below 4.6.
